# Measurements: patent US8946410B2, “Automated radiosynthesis” (GE Healthcare Limited, priority 2009, dated 2015)
# Settings: rat; for Pre-frontal cortex: thalmus: ratio of regional uptake
substance,measurement,setting,value
Ortho-[^18F]Flumazenil [ortho-[^18F]-flumazenil],Radioactivity in the pre-frontal cortex (region with the highest levels),10 minutes pi,1.39±0.06 % id
same,Pre-frontal cortex: thalmus,0.5 min post-injection,1.11
same,Pre-frontal cortex: thalmus,2 min post-injection,1.37
same,Pre-frontal cortex: thalmus,10 min post-injection,1.50
same,Pre-frontal cortex: thalmus,30 min post-injection,2.28
same,Pre-frontal cortex: thalmus,60 min post-injection,3.96

# Like-named read-outs stand apart in the source and are kept apart here.
